## Binding of CDR-mutated scFvs to a peptide of the spike HR2 region

Values reported by Li et al. 2023, doi:10.1038/s41467-023-39022-2 (FLAb copy).

Target peptide (SARS-CoV-2 spike, HR2 region): PDVDLGDISGINAS

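The starting antibody came from a phage panning campaign against this peptide. Designed CDR sequences, proposed from the first random library and measured here. Group labels follow the data file (Ctrl: baseline library sampled from a position-specific scoring matrix, with some repeated check sequences; Rand: our label for a block that the file lists under HC and that is probably the random mutants of the ten best first-round binders; En: ensemble of fine-tuned language models; GP: Gaussian process model; HC: hill climbing; Gen: genetic algorithm; Gibbs: Gibbs sampling; a sequence that several methods proposed may carry one label only). AlphaSeq pools MATa yeast showing the antibodies with MATalpha yeast showing the peptide. Pairs that bind mate more often; barcode pairs of the diploids are counted by sequencing. Each replicate has its own calibration line, from reference interactions of the BCL2 family. Each pool was mated in six replicate cultures.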

Each scFv is VH, a (GGGGS)3 linker, VL, as in the parent Ab-14, and differs from it in the CDRs of the light chain only.
VH: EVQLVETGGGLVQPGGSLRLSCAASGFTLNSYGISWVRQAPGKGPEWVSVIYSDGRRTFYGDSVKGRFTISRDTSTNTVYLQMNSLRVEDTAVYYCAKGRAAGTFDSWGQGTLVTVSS
VL: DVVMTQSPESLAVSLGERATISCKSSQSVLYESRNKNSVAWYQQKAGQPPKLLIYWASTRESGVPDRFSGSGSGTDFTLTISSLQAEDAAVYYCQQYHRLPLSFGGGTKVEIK

Variants are written as CDR1, CDR2 and CDR3 of the light chain (limits as in the source). Parent: KSSQSVLYESRNKNSVA, WASTRES, QQYHRLPLS. Scale: log10 of Kd in nM, estimated from mating counts; low values are strong binders. Averages over replicates are reported, and they cover detected replicates only. "no signal" marks a missing value. The strain was present, yet no cells mated with the target were sequenced in any replicate, which points to weak or no binding. Three control strains display no target. For all light chain designs, 4% of the pairings with them gave a signal, with a median of 2.64 and one signal in twenty below 1.59, so weak values seen in few replicates may be background.

| CDR-L1 | CDR-L2 | CDR-L3 | group | mean log10 Kd (nM) | seen in |
|---|---|---|---|---|---|
| IMSQSQLYESRMKNSVA | WASTRES | QQYHRLPLS | Ctrl | 1.54 | 6 of 6 |
| KLRQVTGYESYNKNSVA | QTSTRAS | QDYHRLPLS | En_HC | 1.40 | 6 of 6 |
| KVSQSVLYEDRNKNSVA | NASTRES | QQYHRLPLS | GP_Gen | 0.25 | 6 of 6 |
| KTSQSVLYESREKNSIA | GASTRES | QQYHRLPLS | Ctrl | 0.29 | 6 of 6 |
| KLSQSYLYESRNKNSVA | NASKRES | QQYHRLPLS | GP_Gen | -0.03 | 6 of 6 |
| TISMFMDNLYSNRNNVA | DTSTLGS | QSYDRLPLS | En_Gen | 2.17 | 4 of 6 |
| TLYGLSNSMSINKNSVA | EMTTREE | QQYDRLPLV | En_Gen | 1.47 | 6 of 6 |
| KSSYSVLYESRNKNSVA | HASTRES | QQYHRLPLS | Ctrl | 0.12 | 6 of 6 |
| KSEQGVLYESRNKNSVA | GASQRES | QQYHRLPLS | GP_HC | 0.07 | 6 of 6 |
| KVQQSQEYESRNKNSVA | HASTRED | QQYHRLPLS | GP_HC | -0.09 | 6 of 6 |
| KSQQSVLYESQNKNSVA | GASTRES | QQIHRLPLS | Ctrl | no signal | 0 of 6 |
| KLDSHEQHGTAQNSAMA | SATVSTQ | QQYSRLPLS | En_Gibbs | 2.09 | 5 of 6 |
| KSSQSVLGESRPKNSCA | WASTRES | QQYHRLPLS | Ctrl | 2.15 | 1 of 6 |
| MLSDLVKMGVRNTNSVA | DNSTRGE | QQYDRLPLS | En_HC | 2.05 | 5 of 6 |
| KQSQSGPYGDRNFNSVA | HASYRIS | QQYHRLPLS | GP_Gibbs | 1.48 | 6 of 6 |
| FLSQSQLYESRNKNSVA | NASTRES | QQYHRLPLS | GP_Gen | 0.17 | 6 of 6 |
| KMSQSMWYESRNRNSVA | NASNRLS | QQYHRLPLS | GP_Gibbs | 0.74 | 6 of 6 |
| TIDDEMPSRGLKWNSIA | GVATVLQ | QQYHRLPLI | En_Gibbs | 2.47 | 3 of 6 |
| KSSFSQDYEDRNKNSVA | SATQRES | QQYHRLPLS | GP_Gibbs | -0.27 | 6 of 6 |
| MISQIYNMGQFAINSVA | QASLRCN | QQYDRLPLM | En_Gen | no signal | 0 of 6 |
| KSSQSVLYESRNSNSVA | WASTGES | QQYHRLPLS | Ctrl | no signal | 0 of 6 |
| KSSQSVLTESRNKNSVA | EASHRAI | QQYVRLPLS | Ctrl | 0.01 | 6 of 6 |
| KVSQSVLYESRTKNSVA | NASTRES | QQMHRLPLS | Rand | 3.48 | 1 of 6 |
| QSAQSVLYESRNKNSVA | WASLRES | QQYHTLPLS | Ctrl | 2.10 | 6 of 6 |
| KLSQYVGGESRNKSALA | DNSTRES | QQYHRLPLS | En_HC | 1.18 | 6 of 6 |
| KFSQSVLYESRNKNSVA | WASTRES | QQYYRLPLS | Ctrl | 0.72 | 6 of 6 |
| RIYIQSDYYMENRSAIA | EMSLKAH | QQYFKLPLA | En_Gibbs | no signal | 0 of 6 |
| KLGAAMRFESSNKASIA | NNSTREE | QQYHRLPLS | En_HC | 1.44 | 6 of 6 |
| KSSWSVLMESRNKNSVA | DASTRES | QQYHRLPLS | GP_HC | -0.01 | 6 of 6 |
| KVQNHSSGFLNDKNAVA | EDTEVAV | QQYVRLPLI | En_Gibbs | 2.85 | 4 of 6 |
| KVSQSVEMQQRNPNSVA | SASTRLS | QQYHRLPLS | GP_Gibbs | -0.13 | 6 of 6 |
| KSSQSVLYESRNKNSVA | WASTRES | QEYHRLPLS | Ctrl | no signal | 0 of 6 |
| KLYQVTGYEMLNKNSVA | QTSTRVN | QDYHRLPLS | En_HC | 0.84 | 6 of 6 |
| KLSMSMRYESEQKNSIA | ELVTRMS | QQYHRLPLS | En_HC | 0.82 | 6 of 6 |
| KLPQSVWYESRNKNSVA | EASTRES | QQYHRLPLS | GP_Gen | 0.10 | 6 of 6 |
| NMQMQDDRMLNAKQNVA | GVDMREE | QQYFRLPFL | En_Gibbs | -0.08 | 6 of 6 |
| KFSQSVLYESRNKNSVA | NASQRES | QDYHRLPLS | GP_Gen | 0.04 | 6 of 6 |
| KLDYQADQYGVQWNNVA | HADIRAP | QQYFKLPLN | En_Gibbs | 1.03 | 6 of 6 |
| KSSISFLYESRNKNSVA | EASTREQ | QQYHRLPLS | GP_HC | 0.01 | 6 of 6 |
| HMSMLTLQGMRHKNSVA | QMTTREN | QQYDHLPLA | En_Gen | 1.52 | 6 of 6 |
| KSSQSVLYESRNKNSVA | DASTRHS | QQYHRLPLS | Ctrl | 0.66 | 6 of 6 |
| HMSMLTLQGMRMRNSVA | QMTTRVN | QQYDRLPLA | En_Gen | no signal | 0 of 6 |
| KISQLVNFLGKDKNSVA | QMSTRES | QQYDRLPLS | En_HC | 0.70 | 6 of 6 |
| KISGYLQKESKNKNSVA | EMVNRES | QQYDRLPLA | En_HC | 0.88 | 6 of 6 |
| KLMGEMEYESRNKNSVA | HASERES | QQYHRLPLQ | GP_Gibbs | 0.32 | 6 of 6 |
| KSSQVYLYESRNKNSVA | GASLRES | QQYHRLPLS | GP_HC | 0.35 | 6 of 6 |
| SFDLTKSGMENERYSIA | ERNVLMT | QDYHRLPLA | En_Gibbs | 2.68 | 2 of 6 |

7 of these entries, quoted again:

| CDR-L1 | CDR-L2 | CDR-L3 | group | mean log10 Kd (nM) | seen in |
|---|---|---|---|---|---|
| TIDDEMPSRGLKWNSIA | GVATVLQ | QQYHRLPLI | En_Gibbs | 2.47 | 3 of 6 |
| KFSQSVLYESRNKNSVA | NASQRES | QDYHRLPLS | GP_Gen | 0.04 | 6 of 6 |
| KMSQSMWYESRNRNSVA | NASNRLS | QQYHRLPLS | GP_Gibbs | 0.74 | 6 of 6 |
| KSSYSVLYESRNKNSVA | HASTRES | QQYHRLPLS | Ctrl | 0.12 | 6 of 6 |
| KLDSHEQHGTAQNSAMA | SATVSTQ | QQYSRLPLS | En_Gibbs | 2.09 | 5 of 6 |
| KLMGEMEYESRNKNSVA | HASERES | QQYHRLPLQ | GP_Gibbs | 0.32 | 6 of 6 |
| KSQQSVLYESQNKNSVA | GASTRES | QQIHRLPLS | Ctrl | no signal | 0 of 6 |

The authors averaged sequences with at least three values out of six and counted those with two or fewer as poor binders. The range of this assay differs from that of the first round, and the authors advise against merging the two.